From patent US8153631B2, “Triazole compounds and uses related thereto” (Amgen Inc., priority 2003, dated 2012)

Protein sequences, listed by entry. Tags and fused reporters are not part of them.
UniProt P28845, whole entry: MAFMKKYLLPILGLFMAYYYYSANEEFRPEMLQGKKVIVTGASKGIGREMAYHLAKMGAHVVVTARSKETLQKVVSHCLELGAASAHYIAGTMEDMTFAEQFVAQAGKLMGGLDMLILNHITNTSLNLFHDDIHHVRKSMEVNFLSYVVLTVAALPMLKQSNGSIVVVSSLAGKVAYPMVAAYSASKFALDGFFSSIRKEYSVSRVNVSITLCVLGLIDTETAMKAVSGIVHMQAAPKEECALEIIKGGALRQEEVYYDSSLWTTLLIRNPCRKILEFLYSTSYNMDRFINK

Molecular target: human HSD1 (recombinant HSD1) (Homo sapiens, UniProt P28845)
Assay: In vitro HSD1 activity inhibitory action, SPA of cortisone to cortisol conversion
Settings: read-out: hHSD1 IC50, recombinant human HSD1 0.1 μg/ml, 500 μM NADPH, 16 nM 3H cortisone, room temperature 90 min
Experimental: In Vitro HSD1 (Hydroxysteroid Dehydrogenase 1) Activity Inhibitory Action
The HSD1 inhibitory activity was examined by quantitative determination by an SPA (scintillation proximity assay) system of the suppressive action on the conversion from cortisone to cortisol using human HSD1 (hereinafter recombinant HSD1) expressed using a baculo-virus system as an enzyme source. For the reaction, a reagent was added to a 96 well plate (96 well Opti-plates™-96 (Packard)) to the following final concentration and a volume of 100 μl was reacted at room temperature for 90 min. The reaction solution used was 0.1 μg/ml recombinant HSD1, 500 μM NADPH, 16 nM ^3H cortisone (Amersham Biosciences, 1.78 Tbq/mol) dissolved in 0.1% BSA (Sigma)-containing PBS and the test drug was 2 μl of a compound solution (dissolved in DMSO). […] After the completion of the reaction, the plate was incubated overnight at room temperature and the radioactivity was measured by Topcount (Packard). […] The inhibition (%) of the test drug was calculated by ((value of control−value of test drug)/(value of control−value of positive control))×100 (%). The IC50 value was analyzed using a computer-based curve fitting soft.

Structure (SMILES): CC(=O)OC1CCN(c2ccc(-c3nnc(C4(c5ccccc5)CC4)n3C)c(Cl)c2)CC1
- IC50: < 0.01 µM
